## Yeast mating assay B: variants of the scFv Ab-14

All variants were tested on one target, the spike HR2 peptide PDVDLGDISGINAS (SARS-CoV-2).

Each scFv is VH, a 15-residue (Gly4Ser)3 linker, VL, as in the parent Ab-14, and differs from it in the CDRs of the heavy chain only.
VH: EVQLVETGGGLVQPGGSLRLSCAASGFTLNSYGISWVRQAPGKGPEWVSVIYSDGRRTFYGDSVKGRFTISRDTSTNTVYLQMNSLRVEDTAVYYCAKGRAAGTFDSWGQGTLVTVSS
VL: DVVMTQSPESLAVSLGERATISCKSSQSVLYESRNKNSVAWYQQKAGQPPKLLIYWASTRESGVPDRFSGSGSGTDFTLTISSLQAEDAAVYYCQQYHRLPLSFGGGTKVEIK

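The starting antibody came from a phage panning campaign against this peptide. The variants were designed computationally from a first round of random CDR variants and then made and measured. Their group label is 14H_En_Gibbs (En: ensemble of fine-tuned language models; Gibbs: Gibbs sampling). AlphaSeq pools MATa yeast showing the antibodies with MATalpha yeast showing the peptide. After mating in shaken culture at 30 °C for 16 h, diploids were selected and their barcode pairs sequenced. Each replicate has its own calibration line, from reference interactions of the BCL2 family. The assay was run in six technical replicates.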

Each variant is given by its three heavy chain CDRs, as the data file delimits them; those of the parent are GFTLNSYGIS, VIYSDGRRTFYGDSVK, GRAAGTFDS. Values are log10 of the apparent Kd in nM; lower means stronger binding. A pair that was not seen in that replicate is written "ND"; this usually means weak binding, but a binder can also be missed. The authors' rule: three or more of the six replicates give a measured affinity, fewer mean a poor binder. Of ten entries with the parent sequence, four were seen in most replicates (averages 0.34 to 2.37), three in one and three in none, so single entries are noisy. The range of this assay differs from that of the first round, and the authors advise against merging the two. Background: pairings of all heavy chain designs with three empty control strains gave a value in 1% of cases (median 2.08, 5th percentile 0.84). Values in that range, when seen in few replicates, are hard to tell from nonspecific mating. For each scFv, signals with the empty controls are counted beside the result, with their mean in brackets.

| # | CDR-H1 | CDR-H2 | CDR-H3 | log10 Kd, replicates | signal with controls |
|---|---|---|---|---|---|
| 1 | GGSLDQYGIS | VIYADGVRTSYTNSVK | GVHAGTFMQ | 0.73 0.97 ND 1.72 1.13 1.51 | 0/18 |
| 2 | GEDLDEYGVS | VIYADGIRSTYADAVK | GKHGAAFFV | ND ND ND ND ND ND | 0/18 |
| 3 | GFDIDEYGIS | VIYADGMRSALINAVK | GTLSGTFIA | ND ND ND ND ND ND | 0/18 |
| 4 | GDDLEAYGIS | VIYADGMRTYYDDAVK | GNVNGTFTD | ND ND ND 2.40 ND ND | 0/18 |
| 5 | GDSLNEYGIS | VIYADGLRSKYADKFK | GQEAGYFDV | ND ND ND ND ND ND | 1/18 (1.77) |
| 6 | GFSLDEYGIS | VIYADGQRKSYADNVK | GYQGSRVSL | ND ND ND ND ND ND | 1/18 (2.17) |
| 7 | GFTLDEYGIS | VIYADGQRTAYTDDVK | GQYGGIGYG | ND ND ND ND ND ND | 0/18 |
| 8 | GFDLQEYGIS | VIFADGLRSAYSDKVK | GQLNGYFSV | ND ND ND ND ND ND | 0/18 |

Values reported by Li et al. 2023, doi:10.1038/s41467-023-39022-2 (FLAb copy).